The values that follow come from patent US9833424B2, “Application of fluoxetine to treatment of depigmentation diseases” (SHANDONG RUNZE PHARMACEUTICALS CO., LTD., priority 2011, dated 2017).

Assay [1] relates to A375 cells. The assay is described as follows: Cell migration (wound healing test) and morphology, A375 cells. Conditions: 48 hours, 0.1-10 μM.
The subject of assay [2] is B16F10 cells. Kind of assay: Cell migration (wound healing test) and morphology, B16F10 cells. As to conditions: 48 hours, 0.1-10 μM.

In the case of `CNCCC(Oc1ccc(C(F)(F)F)cc1)c1ccccc1` (centres unmarked) [fluoxetine, N-methyl-γ-[4-(trifluoromethyl)phenoxy] phenylpropylamine], the cell morphology result was “number of dendritic cells decreased and the cells became spindle shaped” in assay [1]; “number of dendritic cells decreased and the cells became spindle shaped” in assay [2].
